Experimental data published in patent US20110053925A1, “Hydroxamate-Based Inhibitors of Deacetylases” (Novartis AG, priority 2009, published 2011).

Protein sequences, listed by entry. Tags and fused reporters are not part of them.
UniProt Q13547, whole entry: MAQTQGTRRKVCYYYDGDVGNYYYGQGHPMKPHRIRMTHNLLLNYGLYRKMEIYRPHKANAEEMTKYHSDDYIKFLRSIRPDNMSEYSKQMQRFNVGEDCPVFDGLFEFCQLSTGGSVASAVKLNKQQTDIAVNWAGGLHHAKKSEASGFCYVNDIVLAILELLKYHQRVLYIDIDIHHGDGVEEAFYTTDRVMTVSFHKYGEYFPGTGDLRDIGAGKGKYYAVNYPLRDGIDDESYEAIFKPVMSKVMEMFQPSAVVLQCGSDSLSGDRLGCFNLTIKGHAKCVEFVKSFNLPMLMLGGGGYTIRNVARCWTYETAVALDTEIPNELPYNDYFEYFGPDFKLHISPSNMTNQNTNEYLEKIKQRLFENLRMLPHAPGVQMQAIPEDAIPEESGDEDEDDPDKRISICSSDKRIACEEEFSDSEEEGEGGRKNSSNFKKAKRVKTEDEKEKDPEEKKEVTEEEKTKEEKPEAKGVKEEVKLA

Tests used:
HDAC-1 = HDAC-1 (Homo sapiens, UniProt Q13547); test: HDAC Inhibition Assay (purified GST-HDAC protein); type: biochemical; conditions: read-out: HDAC-1 IC50
HCT116 = HCT116 IC50; type: cell-based; conditions: read-out: HCT116 IC50

**Q.** With O=C(/C=C/c1ccc(CN2CCCC(c3c[nH]c4ccccc34)C2)c(F)c1)NO (centres unmarked) as the compound, how does the IC50 (HDAC-1) read?
**A.** Its IC50 is 140 nM.

**Q.** And the IC50 (HCT116)?
**A.** Its IC50 is 330 nM.
